Biological target: T1, hERG (Homo sapiens, UniProt Q12809)
T1 construct: expressed in transfected cells; host or cells: HEK293
Assay: hERG patch clamp
Format: cell-based
Conditions: positive control
Protocol: hERG. hERG channels expressed HEK293 cell line was cultured in DMEM at 37℃ with 10% FBS to ~70% of log phase. Then, the cells were washed with PBS and digested with trypsin. After incubation at 37 ℃ for 2-3 min, the cells were washed again and adjusted to ~ 2×10^3/mL. The patch clamp detection experiment was performed after the cells attached to the cell wall. The extracellular fluid was prepared as 137 mM NaCl,1 mM MgCl2‧6H2O, 4 mM KCl,1.8 mM CaCl2‧2H2O, 10 mM D-Glucose, 10 mM HEPES, pH=7.4. And the intracellular fluid was prepared as 140 mM KCl,10 mM EGTA, 5 mM MgCl2‧6H2O, 10 mM HEPES, 5 mM Mg-ATP, pH=7.2. The current data was collected by using Pathmaster software. And the peak current inhibition rate was calculated as: (1−Peak tail current compoundPeak tail current vehicle). The concentration-effects were fitted by the Hill equation: I=Imax∙(1/[1+(C1/2/[C])^h), where [C], C1/2, and h represented the drug concentration, half inhibitory concentration (IC50), Hill coefficient, respectively^19.

The chains behind the UniProt entries cited, without tags or fusion partners. Where a name states a change or a piece, a line headed by the entry shows the natural chain unless it says otherwise.
UniProt Q12809: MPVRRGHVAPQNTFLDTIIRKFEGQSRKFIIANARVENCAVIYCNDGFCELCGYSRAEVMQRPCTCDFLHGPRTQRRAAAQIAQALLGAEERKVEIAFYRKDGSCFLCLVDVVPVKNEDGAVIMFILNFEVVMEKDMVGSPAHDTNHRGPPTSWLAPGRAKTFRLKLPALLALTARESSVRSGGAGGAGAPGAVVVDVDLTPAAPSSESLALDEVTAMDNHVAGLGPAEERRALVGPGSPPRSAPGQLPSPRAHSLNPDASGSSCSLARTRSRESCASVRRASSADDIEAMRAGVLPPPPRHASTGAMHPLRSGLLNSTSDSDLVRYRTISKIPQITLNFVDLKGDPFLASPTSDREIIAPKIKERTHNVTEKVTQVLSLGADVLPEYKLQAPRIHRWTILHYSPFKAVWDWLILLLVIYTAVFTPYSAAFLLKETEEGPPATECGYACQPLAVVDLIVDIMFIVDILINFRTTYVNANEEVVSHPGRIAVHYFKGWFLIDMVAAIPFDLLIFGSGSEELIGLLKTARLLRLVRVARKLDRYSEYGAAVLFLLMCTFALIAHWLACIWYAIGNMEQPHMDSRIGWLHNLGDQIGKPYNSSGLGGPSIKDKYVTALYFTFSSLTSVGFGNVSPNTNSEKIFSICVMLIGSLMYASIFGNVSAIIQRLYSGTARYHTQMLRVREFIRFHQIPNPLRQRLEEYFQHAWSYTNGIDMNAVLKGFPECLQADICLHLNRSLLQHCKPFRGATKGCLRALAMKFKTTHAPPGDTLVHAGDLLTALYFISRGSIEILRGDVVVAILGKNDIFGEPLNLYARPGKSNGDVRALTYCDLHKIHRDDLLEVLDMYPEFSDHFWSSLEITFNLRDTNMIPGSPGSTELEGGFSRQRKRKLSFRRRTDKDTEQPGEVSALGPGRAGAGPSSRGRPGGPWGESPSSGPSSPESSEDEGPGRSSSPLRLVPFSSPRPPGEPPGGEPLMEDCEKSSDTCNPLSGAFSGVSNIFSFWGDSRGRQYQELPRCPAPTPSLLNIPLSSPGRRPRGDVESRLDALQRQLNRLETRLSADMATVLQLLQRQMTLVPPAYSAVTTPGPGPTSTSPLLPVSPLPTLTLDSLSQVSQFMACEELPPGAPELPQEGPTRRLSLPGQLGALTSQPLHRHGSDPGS

COc1cc(N)c(Cl)cc1C(=O)NC1CCN(CCCOc2ccc(F)cc2)CC1OC (stereo not shown) [cisapride, reference compound]
hERG inhibition (in words): obvious inhibitory effect
